Assay results published in publication PMC2213140 (The Journal of Experimental Medicine, 2005).

Tests used:
[1] = system: 1G4 CTL clone; conditions: substitution of cysteine to valine at position 165; cited from earlier work
[2] = system: 1G4 CTL clone with peptide-pulsed T2 target cells; experiment: Live cell video microscopy of CTL lytic granule polarization; format: cell-based; conditions: T2 cells pulsed with 1 μM peptide
[3] = system: 1G4 CTL clone with peptide-pulsed T2 target cells; format: cell-based; conditions: 30 min at 37°C
[4] = system: Jurkat cells transfected with A2K^b cDNA; experiment: In vitro killing assay with CTL from ESO 9V-immunized mice; format: cell-based

## SLLMWITQV [ESO 9V]
[1]
  ability to sensitize target cells for killing by the 1G4 CTL clone: enhanced its ability to sensitize target cells for killing by the 1G4 CTL clone
[2]
  rate of lytic granule polarization: granule polarization is rapid
[2]; 1 h at 37°C, single CTL followed
  time from initial contact to granule polarization at the synapse: 4 min
[3]
  granule polarization: granule polarization is much more efficient
[4]
  lysis of peptide-loaded target cells by CTL from ESO 9V-immunized mice: as well as target cells loaded with the ESO 9V analogue
